By EC50 is commonly meant the concentration at which the effect is half-maximal.

Amino acid sequences for entries named in this document (tags omitted).
UniProt P08172, whole entry: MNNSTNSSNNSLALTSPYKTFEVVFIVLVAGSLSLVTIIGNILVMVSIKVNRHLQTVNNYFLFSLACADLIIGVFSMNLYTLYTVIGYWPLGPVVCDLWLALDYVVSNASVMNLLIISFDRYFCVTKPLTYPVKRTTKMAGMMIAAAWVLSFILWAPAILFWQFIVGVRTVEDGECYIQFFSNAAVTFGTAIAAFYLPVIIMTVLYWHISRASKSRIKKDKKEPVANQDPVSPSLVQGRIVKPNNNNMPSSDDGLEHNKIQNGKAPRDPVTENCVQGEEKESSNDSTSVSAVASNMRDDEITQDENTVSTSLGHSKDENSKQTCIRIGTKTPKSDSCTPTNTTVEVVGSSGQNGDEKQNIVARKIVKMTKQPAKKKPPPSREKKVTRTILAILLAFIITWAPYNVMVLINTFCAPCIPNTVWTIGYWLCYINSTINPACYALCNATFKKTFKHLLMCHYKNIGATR

The structures appear in SMILES notation.

In the test the target is Muscarinic acetylcholine receptor M2 (Homo sapiens, UniProt P08172). Briefly: Activation of human cloned muscarinic M2 receptor expressed in CHO-K1 cells by Calcium flux assay. It is filed as functional, cell-based. For orientation: Calcium assays in cells follow changes in intracellular calcium, usually with a dye or a luminescent sensor.

As for `CCCCCCOc1nsnc1C1=CCCN(C)C1` [XANOMELINE], the EC50 is 0.77 µM.
